Measurements as given in PubChem BioAssay AID1969 (National Center for Advancing Translational Sciences (NCATS), 2009).
This is a selection; strong and weak results do not stand in their true shares. Calls of active or inactive are those of the source. Calls come from the whole dose curve; as a rule, active = well fitted inhibition curve with a large enough effect; inconclusive = small, poorly fitted or top-dose-only effect; inactive = flat fitted curve, though single readings scatter.

Amino acid sequences for entries named in this document (tags omitted). A change or cut given only in a name is not applied to a line headed by its entry.
UniProt Q9HAZ1: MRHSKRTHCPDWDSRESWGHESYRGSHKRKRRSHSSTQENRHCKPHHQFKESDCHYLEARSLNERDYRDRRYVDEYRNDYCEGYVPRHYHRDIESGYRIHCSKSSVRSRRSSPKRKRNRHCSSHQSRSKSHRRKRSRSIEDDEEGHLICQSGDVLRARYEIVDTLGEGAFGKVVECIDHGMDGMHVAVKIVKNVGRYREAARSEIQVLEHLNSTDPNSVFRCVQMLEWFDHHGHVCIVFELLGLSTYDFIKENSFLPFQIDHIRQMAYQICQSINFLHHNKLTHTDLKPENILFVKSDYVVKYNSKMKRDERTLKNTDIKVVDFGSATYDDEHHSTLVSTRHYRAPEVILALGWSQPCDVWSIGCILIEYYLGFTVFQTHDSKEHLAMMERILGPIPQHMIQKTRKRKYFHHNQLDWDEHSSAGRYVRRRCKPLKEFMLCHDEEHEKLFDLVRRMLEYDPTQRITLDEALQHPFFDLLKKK

These molecules were tested against Dual specificity protein kinase CLK4 (Homo sapiens) (UniProt Q9HAZ1) (assay: Confirmaiton Assay for Inhibitors of CDC-like Kinase 4 (ADP-Glo Assay)). Conditions: recombinant Clk4, RS peptide, ADP-Glo luminescence.
Description: NIH Molecular Libraries Probe Production Centers Network [MLPCN] NIH Chemical Genomics Center [NCGC] MLPCN Grant: 1R03MH084827-01 Assay Submitter (PI): Tom Misteli NCGC Assay Overview: Clk4 (Invitrogen, cat# PV3839) was assayed using ATP and the RS repeat peptide (AnaSpec cat # 61722) as substrates. In the assay, the ADP levels were detected using Promega ADP-Glo technology wherein the remaining ATP from the kinase reaction is first depleted with an ATPase reagent followed by a reagent that contains and enzyme which converts the ADP produced to ATP as well as Ultra-Glo luciferase and D-luciferin which generates a bioluminescence signal from the ATP. The positive control for the assay was TG003 (Sigma-Aldrich, cat# 300801-52-9) which has been described as an inhibitor of Clk 4[1].
NCGC Assay Protocol Summary: Two uL/well of substrate-buffer solution (100 uM RS peptide, 1 uM ATP, 1x ADP-Glo Buffer A, 2 mM MgCl2, 0.5 mM EGTA, 2.5 mM DTT, 0.01% Triton X-100, final concentrations) was dispensed into 1536-well plates (Greiner, solid white, medium binding assay plates) with the Aurora Discovery BioRAPTR Flying Reagent Dispenser (FRD; Beckton-Dickenson). […] Luminescence was detected after 30 min room temperature incubation with the Perkin Elmer Viewlux.

Compound | Potency
c1csc(CNc2ncnc3ccc(-c4ccc5c(c4)OCCO5)cc23)c1 | active: 141 nM
